For 43 molecules, activity change, positive = activation results are on record in PubChem BioAssay AID504706 (National Center for Advancing Translational Sciences (NCATS), 2011).

The entries are a selection whose mix differs from that of the whole data set. Results filed as inconclusive are left out. Some structures show a salt or complex split into parts, the way the source records it. Active and inactive are the calls of the source. Calls come from the whole dose curve; as a rule, active = well fitted activation curve with a large enough effect; inconclusive = small, poorly fitted or top-dose-only effect; inactive = no such curve, though single readings can be large or run the other way.

This test in a line: qHTS assay for re-activators of p53 using a Luc reporter. Note: % of control where 0% means no effect; nearly all actives have a fitted effect of over 45% in size. As to conditions: H1299 p53-A138V BP100-luciferase reporter, luminescence, 24 h; at 92.2 µM (top of the series). The text has this: The p53 tumor suppressor plays a key role in suppression of tumorigenesis and in human carcinogenesis. It is frequently found inactivated in human cancers, mainly by point mutation. These point mutations are found in a wide variety of human cancers and a majority of them affect the DNA binding domain of the protein. The point mutations either alter native p53 conformation or abolish DNA contact. Additionally, cancer cells with p53 mutations are more resistant to chemo-radiation therapies. In order to find activators to reactivate this important protein, a cell-based screen for p53-dependent luciferase-reporter expression was developed. A p53-null H1299 lung cancer cell line was stably co-transfected with a temperature sensitive p53 mutant, p53-A138V, and a p53-responsive BP100-luciferase reporter. This cell model has previously been characterized in a gene chip profiling experiment for p53 activation. By lowering the culture temperature from 37 deg C (mutant p53 conformation) to 32 deg C (w.t. p53 conformation), a 30-60 fold increase in activation of luciferase activity is observed. At assay temperate, 37 deg C, basal reporter expression is very low and after the addition of detection reagent, a luminescent read-out is carried out. NIH Chemical Genomics Center [NCGC] NIH Molecular Libraries Probe Production Centers Network [MLPCN] MLPCN Grant: DA031088-01A1 Assay Provider (PI): Yi Sung, University of Michigan at Ann Arbor
5ul of 1000 cells per well are dispensed in all wells except column 4, into white solid-bottom TC-treated Kalypsys plates. The cells are kept in Opti-MEM and supplemented with 10% FBS and dispensed using a Multidrop (Thermo). Then using the Kalypsys pin-tool, 23nl of compounds are pinned. The compounds are starting concentration at 10mM, with 1:5 dilution, 4 points, and the control compound nocodazole is pinned in column 1 at 25mM, 1:3 dilution, in duplicate, 25mM nocodazole is pinned in column 2. Please note, all concentrations are working concentrations. 5ul of 1pM purified luciferase enzyme is dispensed using the Kalypsys dispenser in column 4. Plates are incubated for 24 hrs at 37 deg C, 5% CO2, and 95% humidity. Then 4ul of the detection reagent Amplite (ABD Bioquest) is added using the Kalypsys dispenser. Plates are incubated for 10 min at ambient room temperature and are then read on the ViewLux (Perkin Elmer) using a clear filter for a luminescent read-out.
(Quantitative high-throughput screening tests each substance at several concentrations.)
Turning to `COc1ccc(C(=O)NCC2(N3CCOCC3)CCCCC2)cc1OC`, the activity change, positive = activation is inactive: 3.65%.
Consider `COc1ccc2c(c1O)-c1c(O)c(OC)cc3c1[C@H](C2)[N+](C)(C)CC3.O=[N+]([O-])c1cc([N+](=O)[O-])c([O-])c([N+](=O)[O-])c1[O-]`, for which the activity change, positive = activation is inactive: 8.7%.
Regarding `O=C(NCC1(N2CCCCC2)CCCCC1)c1cncc(Br)c1`, the activity change, positive = activation was inactive: -7.37%.
As for `O=C(OC1CN2CCC1CC2)c1ccc([N+](=O)[O-])cc1` (stereo not drawn), the activity change, positive = activation was inactive: -3.44%.
Take `CCCOc1ccc(C(=O)NCC2(N(C)C)CCCCC2)cc1OC`: the activity change, positive = activation was inactive: -2.57%.
For `COc1ccc(CN(CCCl)CCCl)cc1Cl`, the activity change, positive = activation is inactive: 1.67%.
In the case of `O=[N+]([O-])c1cc([N+](=O)[O-])c(OC2CCCCC2O)c([N+](=O)[O-])c1` (stereo not drawn), the activity change, positive = activation was inactive: -0.99%.
For the molecule `CN(C)c1cccc(C(=O)NCC2(N3CCCCC3)CCCCC2)c1`, the activity change, positive = activation is inactive: 3.9%.
As to `CC(C)c1ccc(NC2CCN(C(=O)OC(C)(C)C)CC2)cc1`, the activity change, positive = activation is inactive: 19.3%.
The result for `COc1cc(OC)c(C(=O)NCC2(N(C)C)CCCCC2)cc1OC` reads inactive: -0.881%; that for `O=C(NCC1(N2CCOCC2)CCCCC1)c1cc(F)c(F)cc1Cl`, inactive: -2.62%; that for `O=C(NCC1(N2CCCCC2)CCCCC1)c1cccc(C(F)(F)F)c1`, inactive: 5.88%.
As for `O=[N+]([O-])c1cc([N+](=O)[O-])c(NCC2CCS(=O)(=O)C2)c([N+](=O)[O-])c1` (stereo not drawn), the activity change, positive = activation is inactive: -5.68%.
For `CN1CCN(CCOC(=O)C(O)(c2ccccc2)c2ccccc2)CC1` the value was inactive: 1.26%; for `CC(C)c1ccc(C(=O)NCC2(N3CCOCC3)CCCCC2)cc1`, inactive: 2.56%.
For the molecule `COc1ccc(NC2CCN(C(=O)OC(C)(C)C)CC2)cc1`, the activity change, positive = activation was inactive: 1.37%.
As for `COc1cc(C(=O)NCC2(N3CCCCC3)CCCCC2)ccc1OC(F)F`, the activity change, positive = activation was inactive: -2.03%.
With `O=C(NCC1(N2CCOCC2)CCCCC1)c1cc(=O)[nH]c2ccccc12`, the activity change, positive = activation is inactive: 1.41%.
Turning to `O=C(NCC1(N2CCCCC2)CCCCC1)c1ccc(OC(F)F)cc1`, the activity change, positive = activation is inactive: 1.2%.
`CSc1ccc(C(=O)NCC2(N3CCOCC3)CCCCC2)cc1`: the activity change, positive = activation was inactive: -2.08%.
As to `O=C(NCC1(N2CCCCC2)CCCCC1)c1cccc([N+](=O)[O-])c1`, the activity change, positive = activation is inactive: 4.48%.
For the molecule `N#CC1(Nc2ccccc2)CCN(CCc2ccccc2)CC1`, the activity change, positive = activation is inactive: -4.53%.
Take `COc1cc(C(=O)NCC2(N(C)C)CCCCC2)ccc1OC(F)F`: the activity change, positive = activation was inactive: -0.101%.
Consider `Cc1ccc(OCC(C)C)c(CN(CCCl)CCCl)c1`, for which the activity change, positive = activation was inactive: 5.2%.
As to `CCOc1ccc(C)cc1CN(CCCl)CCCl`, the activity change, positive = activation is inactive: 1.25%.
The result for `CCCCOc1ccc(C(=O)NCC2(N3CCOCC3)CCCCC2)cc1` reads inactive: -7.08%.
As for `O=C(NCC1(N2CCCCC2)CCCCC1)c1ccc(F)cc1`, the activity change, positive = activation was inactive: -3.92%.
As to `COc1ccc(NC2CCN(CCc3ccccc3)CC2)c(OC)c1`, the activity change, positive = activation is inactive: -15.2%.
As to `CCOC(=O)N1CCC(Nc2ccc(F)cc2)CC1`, the activity change, positive = activation is inactive: 8.29%.
On to `O=C(NCC1(N2CCOCC2)CCCCC1)c1cc2ccccc2o1`, for which the activity change, positive = activation was inactive: 0.535%.
For the molecule `O=C(NCC1(N2CCCCC2)CCCCC1)c1ccc(Cl)nc1`, the activity change, positive = activation is inactive: -0.309%.
Regarding `Cc1cc(C)cc(N(C(=O)c2ccccc2)C2CCN(C(=O)OC(C)(C)C)CC2)c1`, the activity change, positive = activation is inactive: 0.377%.
`CCOC(=O)N1CCC(Nc2ccc(OC)cc2)CC1`: the activity change, positive = activation was inactive: -0.973%.
For `N#CC1(Nc2ccccc2)CCN(Cc2ccccc2)CC1`, the activity change, positive = activation is inactive: 5.39%.
`O=C(NCC1(N2CCCCC2)CCCCC1)c1ccc(Cl)s1`: the activity change, positive = activation is inactive: -6.33%.
For `O=C(OC1CN2CCC1CC2)C1c2ccccc2Oc2ccccc21` (stereo not drawn) the value was inactive: -13.1%; for `COc1ccc(Cl)cc1C(=O)NCC1(N2CCOCC2)CCCCC1`, inactive: -3.53%; for `O=C(NCC1(N2CCCCC2)CCCCC1)c1ccc(=O)[nH]c1`, inactive: -3.01%.
With `O=C(NCC1(N2CCCCC2)CCCCC1)c1cccs1`, the activity change, positive = activation was inactive: 2.7%.
As to `COc1ccc(C(=O)NCC2(N3CCCCC3)CCCCC2)cc1`, the activity change, positive = activation is inactive: 0.449%.
On to `CC(C)(C)OC(=O)N1CCC(N(C(=O)c2ccccc2)c2ccc(F)cc2)CC1`, for which the activity change, positive = activation is inactive: 2.38%.
On to `COc1ccc(C(=O)NCC2(N3CCCCC3)CCCCC2)c(OC)c1OC`, for which the activity change, positive = activation is inactive: -9.91%.
For the molecule `CSc1ccccc1C(=O)NCC1(N2CCCCC2)CCCCC1`, the activity change, positive = activation was inactive: -7.29%.
